Assay [1] can be described thus: Inhibition of P-glycoprotein.
For assay [2], the target named is ATP-dependent translocase ABCB1 (Homo sapiens, UniProt P08183). As to the kind of experiment: Inhibition of human MDR1 expressed in MDCK2 cells assessed as enhancement of Calcein-AM uptake treated 30 mins before Calcein-AM challenge measured after 20 mins.

Amino acid sequences for entries named in this document (tags omitted).
UniProt P08183, whole entry: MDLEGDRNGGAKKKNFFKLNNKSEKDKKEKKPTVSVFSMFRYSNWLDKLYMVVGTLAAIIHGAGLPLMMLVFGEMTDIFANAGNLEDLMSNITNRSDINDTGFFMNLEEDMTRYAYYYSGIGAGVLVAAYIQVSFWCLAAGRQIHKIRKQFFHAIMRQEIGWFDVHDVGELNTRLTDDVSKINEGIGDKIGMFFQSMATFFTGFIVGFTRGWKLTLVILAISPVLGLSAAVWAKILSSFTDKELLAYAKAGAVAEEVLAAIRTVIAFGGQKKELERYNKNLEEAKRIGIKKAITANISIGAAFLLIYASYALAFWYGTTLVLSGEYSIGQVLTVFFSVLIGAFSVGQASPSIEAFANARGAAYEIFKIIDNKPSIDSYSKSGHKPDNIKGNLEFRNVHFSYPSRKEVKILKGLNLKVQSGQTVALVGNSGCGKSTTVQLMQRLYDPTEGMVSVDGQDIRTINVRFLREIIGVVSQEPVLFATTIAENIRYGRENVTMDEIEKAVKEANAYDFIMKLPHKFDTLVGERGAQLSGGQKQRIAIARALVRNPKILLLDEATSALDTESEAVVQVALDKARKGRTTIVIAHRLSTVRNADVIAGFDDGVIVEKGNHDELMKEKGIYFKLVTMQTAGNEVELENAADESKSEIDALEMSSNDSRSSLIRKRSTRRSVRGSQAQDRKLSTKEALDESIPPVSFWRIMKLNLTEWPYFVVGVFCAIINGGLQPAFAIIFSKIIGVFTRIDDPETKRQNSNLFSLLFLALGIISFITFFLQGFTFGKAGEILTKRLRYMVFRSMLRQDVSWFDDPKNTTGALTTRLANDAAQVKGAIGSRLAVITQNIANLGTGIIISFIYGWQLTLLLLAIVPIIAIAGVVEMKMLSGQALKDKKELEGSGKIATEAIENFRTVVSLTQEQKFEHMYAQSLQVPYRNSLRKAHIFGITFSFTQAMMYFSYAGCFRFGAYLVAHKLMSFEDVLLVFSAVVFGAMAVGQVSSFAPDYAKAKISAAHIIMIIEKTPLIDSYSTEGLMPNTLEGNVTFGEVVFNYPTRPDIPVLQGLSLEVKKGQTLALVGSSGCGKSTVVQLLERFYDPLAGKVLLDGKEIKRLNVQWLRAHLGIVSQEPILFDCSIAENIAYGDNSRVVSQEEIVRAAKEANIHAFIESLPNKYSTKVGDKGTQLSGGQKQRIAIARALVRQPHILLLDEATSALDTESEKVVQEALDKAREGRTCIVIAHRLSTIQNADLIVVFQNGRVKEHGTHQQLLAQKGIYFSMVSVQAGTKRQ

In the case of `O[C@@H](COc1cccc2ncccc12)CN1CCN([C@@H]2c3ccccc3[C@@H]3[C@H](c4ccccc42)C3(Cl)Cl)CC1`, the IC50 in assay [1] was 0.4 µM; in assay [2], 0.93 µM.

The record behind these values is ChEMBL document CHEMBL1138514, “Rhodamine inhibitors of P-glycoprotein: an amide/thioamide "switch" for ATPase activity” (J Med Chem, 2009).
